Amino acid sequences for entries named in this document (tags omitted). Residues count along the entry.
UniProt P61073, whole entry: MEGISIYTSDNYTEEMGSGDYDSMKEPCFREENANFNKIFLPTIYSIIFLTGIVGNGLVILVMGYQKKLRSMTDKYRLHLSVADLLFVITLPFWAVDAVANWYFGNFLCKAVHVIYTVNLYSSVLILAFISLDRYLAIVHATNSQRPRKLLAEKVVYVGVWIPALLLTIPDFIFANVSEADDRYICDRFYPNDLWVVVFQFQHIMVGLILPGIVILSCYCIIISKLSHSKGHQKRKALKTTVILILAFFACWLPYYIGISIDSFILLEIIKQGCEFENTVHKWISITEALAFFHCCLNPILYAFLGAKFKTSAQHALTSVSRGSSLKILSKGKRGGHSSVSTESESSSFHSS
UniProt P48061, 22-89: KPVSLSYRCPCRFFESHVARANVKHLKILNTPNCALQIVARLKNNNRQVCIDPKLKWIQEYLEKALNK

According to PMC4484427:

Target: C-X-C chemokine receptor type 4 (CXCR4) (human (endogenous in H1299)) (UniProt P61073)

- Matrigel invasion of H1299 cells, 12 h, SDF-1α plus 2 Gy irradiation against control cells; abrogated by AMD3100: 1.87 fold
Substance: Stromal cell-derived factor 1α (SDF-1α) (from UniProt P48061-2 22-89) (ligand)
